PglD DTNB: blocks C. jejuni PglD acetyltransferase activity. purified PglD enzyme, DTNB colorimetric CoA detection. inhibition, % at 12.5 µM. 360,000 tested, 0.098% active. AID 602405; in the data active = inhibition above about 16%, passing the limit was not always enough; inconclusive = no clear call, values can overlap the other calls
UUG fidelity: yeast start codon fidelity modulation; activity score, % at 18.7 µM; actives 0.13% (n = 350,000); S. cerevisiae UUG-firefly luciferase reporter, luminescence/redox ratio; AID 602363;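 active means replicate mean at a twofold rise or more, about +100% in these data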;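 further: firefly luciferase made from a UUG start codon reports start codon fidelity; reporter light over untreated wells divided by growth signal over untreated wells; some hits fall short of that in this replicate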
Statin myotox sup: protects C2C12 myotubes from simvastatin toxicity. ATP luminescence, 48 h; scaled: DMSO 0, geranylgeraniol control 100. rescue of ATP level, % at 7.49 µM. 330,000 tested, 0.78% active;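 active = mean ATP rescue above about 67%, or every replicate alone reaching that limit, limit read from the data, passing the limit was not always enough; inconclusive = no clear call, values can overlap the other calls; inactive = mean under the limit and some replicate under it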;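 note: myotubes were challenged with 10 µM simvastatin during compound exposure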
esBAF inh: inhibitors of esBAF chromatin remodeling in mouse ES cells. 350,000 tested, 2% active. reporter increase, % at 12.5 µM. Bmi1-luciferase knock-in reporter, 24 h; 100% = twice the neutral-well signal; in the data active = activation above about 40%; inconclusive = no clear call, values can overlap the other calls;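 note: 0% = median of the plate's neutral control wells and 100% = double that signal; a rise in the Bmi1 reporter signal indicates esBAF inhibition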
PGC1a acetyl inh: modulators of PGC1a acetylation | AID 651687 | U2OS PGC1a acetylation, AlphaScreen anti-acetyl-lysine; with virally co-expressed GCN5 acetyltransferase | 350,000 tested, 0.17% active | inhibition, % at 15.6 µM;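 active = every replicate shows inhibition of at least 40%; inconclusive = mean inhibition at least 40% but some replicate below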;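 note: 0% = neutral control wells and 100% = positive control wells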
E-selectin induc: induces E-selectin expression in human endothelial cells | 260,000 tested, 0.37% active | HUVEC E-selectin immunofluorescence imaging; normalized: neutral wells 0, TNF-alpha wells 100 | P16581 | activation, % at 7.58 µM;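 active = mean E-selectin-positive cell signal at least 10% of the positive control, reached in at least 60% of replicates, without over 20% cell loss; inconclusive = no rule given, readout overlaps actives, possibly toxicity-flagged; inactive = the rest, including those meeting only one limit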
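System: HUVEC, human umbilical vein endothelial cells; quantity: 3,000 cells/well; buffer or medium: EGM-2 medium, gelatin-coated wells; dosing: single-point compound dose; detection: immunofluorescence imaging; evaluation: % PE-positive cells; benchmarks: TNF-alpha, DMSO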
Active calls of the source: *. Hits are enriched below; roughly 2.8% of the tested compounds scored in any of these assays.

How did CC(C)NC(=O)N1Cc2cc(C(=O)NCC(F)(F)F)nc(-c3cccc(-c4cc5ccccc5o4)c3)c2[C@H]1CCO do in these assays?
PGC1a acetyl inh: 10; E-selectin induc: 0

Results for C=CCN1C(=O)[C@@]2(O[C@@H](CCn3cc([C@H](O)c4ccccc4)nn3)[C@H]([Si](C)(C)c3ccc(OC)cc3)[C@H]2C)c2ccccc21 ?
PglD DTNB: 14; UUG fidelity: -10

How did CC(C)C(=O)N(c1ccc2oc(=O)sc2c1)S(=O)(=O)c1ccccc1 do in these assays?
PglD DTNB: 9; UUG fidelity: -15; Statin myotox sup: 106*; esBAF inh: 4; PGC1a acetyl inh: -5

What do the screens show for `COc1cccc(-c2ccc3c(c2)O[C@H](CN(C)Cc2cncnc2)[C@@H](C)CN([C@H](C)CO)S3(=O)=O)c1`?
PglD DTNB: -1; UUG fidelity: -14; Statin myotox sup: -16; esBAF inh: 0; PGC1a acetyl inh: -3; E-selectin induc: 1

How did CC(C)NC(=O)N(C)C[C@H]1Oc2c(NS(=O)(=O)c3ccccc3)cccc2C(=O)N([C@@H](C)CO)C[C@@H]1C do in these assays?
PglD DTNB: 4; UUG fidelity: -6; Statin myotox sup: -9; esBAF inh: 2; PGC1a acetyl inh: 2; E-selectin induc: 10

How did CN(C)C(=O)C[C@H]1CC[C@@H](NC(=O)c2ccc(F)cc2)[C@H](CO)O1 do in these assays?
PglD DTNB: -3; UUG fidelity: -15; Statin myotox sup: -19; esBAF inh: -2; PGC1a acetyl inh: 0; E-selectin induc: 0

What do the screens show for `Cc1ccc2c(COC(=O)C3=COCCO3)cc(=O)oc2c1`?
PglD DTNB: -2; UUG fidelity: -1; Statin myotox sup: 14; esBAF inh: inconclusive; PGC1a acetyl inh: 3

How did Cc1ccc2c(COC(=O)c3ccccc3OC(F)F)cc(=O)oc2c1 do in these assays?
PglD DTNB: 0; UUG fidelity: -22; Statin myotox sup: 3; esBAF inh: 48*; PGC1a acetyl inh: 7; E-selectin induc: 0

How did O=C1NC2(CCCCCC2)C(=O)N1Cc1ccc(Br)cc1 do in these assays?
PglD DTNB: 3; UUG fidelity: -16; Statin myotox sup: -4; esBAF inh: 1; PGC1a acetyl inh: -12

What do the screens show for `COC(=O)c1ccc(CN2C(=O)NC3(CCCCC3)C2=O)cc1`?
Statin myotox sup: 8; esBAF inh: 72*

How did COC(=O)C1=C(C)N(c2ccc(F)cc2)/C(=C/c2ccc(O)cc2)C1=O do in these assays?
PglD DTNB: -3; UUG fidelity: -15; Statin myotox sup: 115*; esBAF inh: -3; PGC1a acetyl inh: 12; E-selectin induc: -5

What do the screens show for `C(=N\n1cnnc1)/c1ccccc1OCCOc1ccccc1`?
PglD DTNB: 2; UUG fidelity: 6; Statin myotox sup: -26; esBAF inh: 61*; PGC1a acetyl inh: -4

Pulled one by one from the list above, 2 records:
What do the screens show for `Cc1ccc2c(COC(=O)C3=COCCO3)cc(=O)oc2c1`?
PglD DTNB: -2; UUG fidelity: -1; Statin myotox sup: 14; esBAF inh: inconclusive; PGC1a acetyl inh: 3

How did CC(C)NC(=O)N(C)C[C@H]1Oc2c(NS(=O)(=O)c3ccccc3)cccc2C(=O)N([C@@H](C)CO)C[C@@H]1C do in these assays?
PglD DTNB: 4; UUG fidelity: -6; Statin myotox sup: -9; esBAF inh: 2; PGC1a acetyl inh: 2; E-selectin induc: 10

Next section:
What do the screens show for `C(=N\n1cnnc1)/c1cccc(OCCOc2ccccc2)c1`?
PglD DTNB: -1; UUG fidelity: -8; Statin myotox sup: 0; esBAF inh: 35; PGC1a acetyl inh: -6

What do the screens show for `CCCNC(=O)N[C@H]1CC[C@H](CC(=O)N2CCN(C)CC2)O[C@H]1CO`?
PglD DTNB: -3; UUG fidelity: -17; Statin myotox sup: 6; esBAF inh: -5; PGC1a acetyl inh: -3; E-selectin induc: 0

What do the screens show for `O=C(c1ccccc1Cl)N1CCNCC1`?
PGC1a acetyl inh: 67*

Results for CC(C)(O)C#Cc1ccc([C@H]2[C@@H](CO)N3CCCCN(S(C)(=O)=O)C[C@H]23)cc1 ?
PglD DTNB: 0; UUG fidelity: 6; Statin myotox sup: 14; esBAF inh: 3; PGC1a acetyl inh: -4; E-selectin induc: 0

What do the screens show for `C[C@H](CO)N1C[C@H](C)[C@@H](CN(C)CC2CC2)Oc2c(NC(=O)Nc3ccc(F)cc3)cccc2C1=O`?
PglD DTNB: -2; UUG fidelity: -2; Statin myotox sup: 17; esBAF inh: 6; E-selectin induc: 1

How did CC(=O)CC(=O)Nc1ccc(Cl)cn1 do in these assays?
E-selectin induc: -1

Results for CC(C)CC(=O)NC(=S)Nc1ccc(Cl)cn1 ?
PglD DTNB: -3; UUG fidelity: -20; Statin myotox sup: -3; esBAF inh: 49*

Screening results as filed in PubChem BioAssay.
